# Binding of CDR-mutated scFvs to a peptide of the spike HR2 region

Binding partner: SARS-CoV-2 spike HR2 peptide, sequence PDVDLGDISGINAS.

Each scFv is VH, three GGGGS repeats, VL, as in the parent Ab-14, and differs from it in the CDRs of the light chain only.
VH: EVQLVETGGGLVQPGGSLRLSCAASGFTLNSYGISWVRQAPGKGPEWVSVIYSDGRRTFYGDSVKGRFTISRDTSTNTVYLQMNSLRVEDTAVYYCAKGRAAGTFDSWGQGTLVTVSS
VL: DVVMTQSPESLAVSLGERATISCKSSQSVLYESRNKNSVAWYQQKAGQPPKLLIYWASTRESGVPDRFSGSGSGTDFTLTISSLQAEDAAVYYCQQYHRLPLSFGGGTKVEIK

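The parent was found by panning a naive human phage display library on the peptide. Designed CDR sequences, proposed from the first random library and measured here. Several design methods are mixed in this list. In AlphaSeq, yeast of one mating type display the scFv and yeast of the other type display the target. The frequency of each diploid, read from paired DNA barcodes, reflects how well the two displayed proteins bind. Scores were corrected for input abundance and mapped to Kd with protein pairs of known affinity run in the same pool. The assay was run in six technical replicates.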

Variants are written as CDR1, CDR2 and CDR3 of the light chain (limits as in the source). Parent: KSSQSVLYESRNKNSVA, WASTRES, QQYHRLPLS. This list holds designs with more than six substitutions. Each Kd is an estimate from the mating assay, the geometric mean of the replicates in which the pair was seen; lower is stronger. An entry "nd" has no value in the source: the pair was not observed among the diploids in any replicate. This suggests poor binding but is not conclusive. The authors averaged sequences with at least three values out of six and counted those with two or fewer as poor binders.

For QFDLFENYQGMQGASIA | GETNRHT | QQYQKLPLS, the assay gave 11 nM (6 of 6 replicates; controls 1 of 18).
For HLSMSTDLESVHKNSIA | DLMTRES | QQYHRLPLS, the assay gave 2.4 nM (6 of 6 replicates; controls 2 of 18).
For KLSMSELYESRNWNSVA | NASLRES | QDYHRLPLS, the assay gave 4.4 nM (6 of 6 replicates; controls 1 of 18).
For KLDMAELGYSQLSSSVA | GSANKCQ | QQYFRLPLS, the assay gave 2.1 nM (6 of 6 replicates; controls 0 of 18).
For KVSEFMRGLMMRKDSIA | DNETRQS | QQYDRLPLS, the assay gave 41 nM (5 of 6 replicates; controls 0 of 18).
For TLYGLSNSMSINKNSVA | EMTTRED | QQYDRLPLI, the assay gave 4.7 nM (6 of 6 replicates; controls 1 of 18).
For YLFNQRSYGDADQRNIA | NGRMRED | QQYARLPLT, the assay gave 560 pM (6 of 6 replicates; controls 0 of 18).
For IISQSVMGESRNKNSVA | QTSERNY | QQYDRLPLM, the assay gave 4.1 nM (6 of 6 replicates; controls 2 of 18).
For KLMHYKHGGNGTRNSVA | EMTIREY | QQYFHLPLN, the assay gave nd (0 of 6 replicates; controls 0 of 18).
For KFQQMVMQGDRNKNSVA | WASTRLQ | QQYHRLPLS, the assay gave nd (0 of 6 replicates; controls 1 of 18).
For KCSLSQEYESRQKNSVA | NASTRCS | QQYHRLPLS, the assay gave 40 nM (6 of 6 replicates; controls 2 of 18).
For MISDLTMYGSRNKNSVA | DLSTRGS | QQYFRLPLS, the assay gave 850 pM (6 of 6 replicates; controls 1 of 18).
For HMSALTLGGMRQRNSVA | QMTTREN | QQYDRLPLT, the assay gave 19 nM (5 of 6 replicates; controls 0 of 18).
For NISYLQGVSTNSVNNVA | QASKRAP | QYYQRLPLC, the assay gave 11 nM (6 of 6 replicates; controls 1 of 18).
For KISQNMGETQRNKNSVA | EVSCVPS | QQYWRLPLS, the assay gave 60 nM (6 of 6 replicates; controls 1 of 18).
For KAQQGELYESRDWNNVA | DASKRLS | QQYHRLPLS, the assay gave 260 pM (6 of 6 replicates; controls 1 of 18).
For KQQQGQDYESRNDNSVA | DASLRES | QQYHRLPLS, the assay gave 1.4 nM (6 of 6 replicates; controls 1 of 18).
For MISQLMNIGTFAINSVA | QASLRCN | QQYDRLPLM, the assay gave 220 nM (4 of 6 replicates; controls 0 of 18).
For KLTATMRFELSKSNNIA | EVTTRSK | QQYYRLPLA, the assay gave 6.8 nM (6 of 6 replicates; controls 0 of 18).
For KIGGVTNGISRMKNSVA | EQSTRED | QQYNRLPLS, the assay gave 13 nM (6 of 6 replicates; controls 0 of 18).
For HLGMLTMLEEYVRNSVA | NNSTREE | QQYDRLPLS, the assay gave nd (0 of 6 replicates; controls 1 of 18).
For IVTEAQNENSLYTNNIA | EGENTLA | QQYFRLPLQ, the assay gave 18 nM (6 of 6 replicates; controls 0 of 18).
For ILMQVYKEPGAAVNNIA | DGANRLQ | QQYHRLPLV, the assay gave 120 nM (3 of 6 replicates; controls 0 of 18).
For KIGATLNTLSHKQNNVA | DLVTREN | QQYFRLPLS, the assay gave 870 pM (6 of 6 replicates; controls 2 of 18).
For MMGGTKTMQSNEIGNVA | DMNERFA | QQYFQLPLS, the assay gave 5.0 nM (6 of 6 replicates; controls 1 of 18).
For KLYYHEVGLVNGQNSIA | EGDQLTF | QQYSHLPLS, the assay gave 13 nM (6 of 6 replicates; controls 0 of 18).
For KLSMTSEMEHKNRNSVA | ELVTRMN | QQYNRLPLS, the assay gave 3.5 nM (6 of 6 replicates; controls 2 of 18).
For MISDMGLHDSRMQNSVA | NNSTRES | QQYHRLPLS, the assay gave 52 nM (6 of 6 replicates; controls 2 of 18).
For TIMQMTSSFSQNINNVA | EVSTREK | QQYDRLPLA, the assay gave 2.6 nM (6 of 6 replicates; controls 0 of 18).
For TISQVMNTLTRTGNNVA | DLAERES | QQYFRLPLS, the assay gave 5.1 nM (6 of 6 replicates; controls 1 of 18).
For KIGSGTNGEKFQSNSVA | QAETREE | QQYHRLPLS, the assay gave 3.6 nM (6 of 6 replicates; controls 3 of 18).
For MMSQVTGMGMRHRNNVA | QTSTREP | QQYDRLPLV, the assay gave 13 nM (6 of 6 replicates; controls 2 of 18).
For KLYPSEWYESRMCNSVA | NASVREQ | QQYHRLPLS, the assay gave 4.6 nM (6 of 6 replicates; controls 1 of 18).
For TISQMFLGEQRNRNSVA | QASTRES | QSYDRLPLS, the assay gave 4.3 nM (6 of 6 replicates; controls 2 of 18).
For ILQQSMLYESRMKNSVA | NASQRWM | QQYHRLPLS, the assay gave 2.2 nM (6 of 6 replicates; controls 0 of 18).
For QMTENDKGHQAGGGSIA | DATETME | QQYMHLPLS, the assay gave 7.6 nM (6 of 6 replicates; controls 0 of 18).
For KLTSITGTEKVKGNNVA | EMETREK | QQYNRLPLS, the assay gave 1.1 nM (6 of 6 replicates; controls 4 of 18).
For KLREVQHVETKQRNNVA | DNDTREY | QDYFRLPLS, the assay gave 1.1 µM (6 of 6 replicates; controls 1 of 18).
For SISGFMKSLSAHANSVA | DMTNRED | QQYDRLPLS, the assay gave 3.2 nM (6 of 6 replicates; controls 0 of 18).
For VMFGGLNWGNIEHQAIA | NVDVREK | QQYHRLPLQ, the assay gave 99 nM (6 of 6 replicates; controls 1 of 18).

The first 3 variants above that were never detected:

CDR-L1,CDR-L2,CDR-L3,Kd,seen in,signal with controls
KLMHYKHGGNGTRNSVA,EMTIREY,QQYFHLPLN,nd,0/6,0/18
KFQQMVMQGDRNKNSVA,WASTRLQ,QQYHRLPLS,nd,0/6,1/18
HLGMLTMLEEYVRNSVA,NNSTREE,QQYDRLPLS,nd,0/6,1/18

As a blank, each scFv also met three strains without target: over all light chain designs, 4% of these pairings were detected, typically at 430 nM and seldom below 38 nM. Also given: how often the same scFv was detected with the empty control strains. A sequence measured in both rounds can read differently, since the two assays cover different ranges. Of ten entries with the parent sequence, four were seen in most replicates (averages 2.2 nM to 240 nM), three in one and three in none, so single entries are noisy.

The measurements come from Li et al. 2023 (doi:10.1038/s41467-023-39022-2) through the FLAb antibody collection.